Assay: Lyophilisation solubility assay (Lysa)
Format: physicochemical
Conditions: 0.05 M phosphate buffer (pH 6.5); reported as bigger than the value if more than 80% of the sample is in solution
Description: The aqueous solubility is an important physico-chemical property that plays a significant role in various physical and biological processes. It is desirable to have good solubility which enables good permeability and gastric and intestinal absorption, linear dose proportionality, less PK variability, and easy formulation for PD/PK studies. At different stages of the drug discovery/development process solubility has to be determined and especially in the early phases (lead generation to lead optimization) high throughput methods are needed. Lyophilisation solubility assay (Lysa) is a well adopted high throughput assay to measure compound solubility in industry.
Samples are prepared in duplicate from 10 mM DMSO stock solutions. After evaporation of DMSO with a centrifugal vacuum evaporator, the residue is solved in 0.05 M phosphate buffer (pH 6.5), stirred for one hour and then shook for two hours. After one night, the solution is filtered using a microtiter filter plate and then the filtrate and its 1/10 dilution are then analyzed by direct UV measurement or by HPLC-UV. In addition a four-point calibration curve is prepared from the 10 mM stock solutions and used for the solubility determination of the compounds. The results are in μg/ml. […]

Substance: 2-[(1R,5R,7S)-9-[[(4S)-4-(3,4-difluoro-2-methyl-phenyl)-5-methoxycarbonyl-2-thiazol-2-yl-1,4-dihydropyrimidin-6-yl]methyl]-6,6-difluoro-3-oxa-9-azabicyclo[3.3.1]nonan-7-yl]acetic acid or 2-[(1S,5S,7R)-9-[[(4S)-4-(3,4-difluoro-2-methyl-phenyl)-5-methoxycarbonyl-2-thiazol-2-yl-1,4-dihydropyrimidin-6-yl]methyl]-6,6-difluoro-3-oxa-9-azabicyclo[3.3.1]nonan-7-yl]acetic acid [Example 132]
- Lysa: 330 µg/mL
